Results reported in ChEMBL document CHEMBL3243921, “2-Pyrrolidinylideneureas, a new class of central nervous system agents” (J Med Chem, 1978).

Tested on: Mus musculus
Experiment: Acute toxicity in po dosed mouse assessed as concentration required to produce 50% loss of righting reflex administered as qd for 4 days measured for 1 min post last dose
Type: organism-based
Conditions: in vivo

`CN1C(=O)CN=C(c2ccccc2)c2cc(Cl)ccc21` [DIAZEPAM] was tested. Which PD50 did it give?
The PD50 was 485 mg/kg.
